From ChEMBL document CHEMBL1121662 (1981)

Experiments:
Assay type in all cases: functional
Mus musculus [1] = organism: Mus musculus; assay: Compound was evaluated for mutagenicity after threshold range
Mus musculus [2] = organism: Mus musculus; assay: Compound was evaluated for low level mutagenicity
Mus musculus [3] = organism: Mus musculus; assay: Compound was evaluated for Carcinogenicity to produce 0.5 tumors per mouse (B.5)

Compound | Log 1/Th+200 (Mus musculus [1]) | Log 1/B+100 (Mus musculus [2]) | Log 1/B.5 (Mus musculus [3])
Nc1cc(N)cc(N(CCCl)CCCl)c1 | 0.31 | 0.85 | 5.41
ClCCN(CCCl)c1ccc(Cl)cc1 | 1.83 | 1.02 | 
NS(=O)(=O)c1ccc(N(CCCl)CCCl)cc1 | 0.87 | 0.52 | 3.44
COc1ccc(N(CCCl)CCCl)cc1 |  | 1.33 | 4.64
CCCCc1ccc(N(CCCl)CCCl)cc1 | 1.59 |  | 3.59
